Assay in all cases: NCI-60 one-dose screen, 48 h (100 = growth as untreated, 0 = no growth, -100 = all killed)
The subject of test [1] is DU-145 prostate. The conditions noted are these: 10 µM unless noted.
The subject of test [2] is K-562 leukemia. Particulars: 10 µM unless noted.
Test [3] deals with MALME-3M melanoma. Particulars: 10 µM unless noted.
Test [4] relates to MDA-MB-231 breast. Particulars: 10 µM unless noted.
For test [5], the system named is RXF 393 renal. Particulars: 10 µM unless noted.
Test [6] concerns SF-268 CNS. The conditions noted are these: 10 µM unless noted.
Test [7] has as its system SF-295 CNS. The conditions noted are these: 10 µM unless noted.
The test system of test [8] is SF-539 CNS. The conditions noted are these: 10 µM unless noted.
The subject of test [9] is UACC-257 melanoma. Particulars: 10 µM unless noted.
Test [10] has as its system M14 melanoma. Particulars: 10 µM unless noted.
For test [11], the system named is HCT-15 colon. The conditions noted are these: 10 µM unless noted.
Test [12] concerns HT29 colon. Particulars: 10 µM unless noted.
Test [13] concerns SNB-75 CNS. Particulars: 10 µM unless noted.
Test [14] concerns SNB-19 CNS. Particulars: 10 µM unless noted.
The test system of test [15] is U251 CNS. Particulars: 10 µM unless noted.
The test system of test [16] is PC-3 prostate. The conditions noted are these: 10 µM unless noted.
Test [17] has as its system SK-MEL-5 melanoma. The conditions noted are these: 10 µM unless noted.
For test [18], the system named is LOX IMVI melanoma. Particulars: 10 µM.
The subject of test [19] is SK-MEL-28 melanoma. Particulars: 10 µM unless noted.
Test [20] deals with UACC-62 melanoma. Particulars: 10 µM unless noted.

The entries are a selection whose mix differs from that of the whole data set.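 Activity criterion: percent growth below 10, measured after cells in 96-well plates were exposed to a single compound concentration for 48 hours.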 Activity calls are given as the source filed them.

For the compound `O=[N+]([O-])c1ccc(Oc2cccc(Oc3ccc([N+](=O)[O-])cc3[N+](=O)[O-])c2)c([N+](=O)[O-])c1`, the growth is inactive: 98.6% in [1]; active: 5.47% in test [2]; inactive: 69.2% in test [3]; inactive: 65.9% in test [4]; inactive: 88.9% in [5]; inactive: 75.8% in [6]. Further, the growth in [7] was inactive: 107%; in [8], inactive: 97%; in test [9] it was inactive: 93.1%; in [10] it was inactive: 80.4%; in [11] it was inactive: 57.2%; in test [12], inactive: 99.1%. Also, the growth in test [13] was inactive: 82.7%; in test [14], inactive: 96.9%; in [15] it was inactive: 88.9%; in [16] it was inactive: 91.4%; in test [17], inactive: 77.9%; in test [18], active: 7.05%. Besides, the growth in test [19] was inactive: 97.9%.
Take `COP(=O)(OC)N1CC1c1ccccc1` (stereo not given): the growth in [1] was inactive: 132%; in test [2] it was inactive: 111%; in test [3], inactive: 122%; in [4] it was inactive: 92.8%; in test [5], inactive: 106%; in [6] it was inactive: 118%. Further, the growth is inactive: 99.1% in test [7]; inactive: 114% in test [8]; inactive: 105% in [9]; inactive: 101% in test [10]; inactive: 100% in [11]; inactive: 107% in test [12]. Besides, the growth in test [13] was inactive: 92%; in test [14], inactive: 87.9%; in test [16], inactive: 95.9%; in test [17], inactive: 104%; in test [20] it was inactive: 89.6%; in [18] it was inactive: 95.3%. Also, the growth in [19] is inactive: 100%.
Turning to `CN1C(=O)N(C)P12(Cl)N(C)C(=O)N2C`, the growth in [1] is inactive: 105%; in test [2] it was inactive: 106%; in test [3] it was inactive: 112%; in test [4], inactive: 109%; in test [5], inactive: 109%; in [6], inactive: 101%. The growth in test [7] was inactive: 108%; in [8] it was inactive: 111%; in test [9], inactive: 100%; in [10], inactive: 105%; in test [11] it was inactive: 105%; in [12] it was inactive: 110%. Moreover, the growth is inactive: 101% in test [14]; inactive: 101% in [15]; inactive: 99.6% in test [16]; inactive: 101% in [17]; inactive: 100% in [20]; inactive: 101% in test [18]. In addition, in test [19], the growth is inactive: 120%.
As to `Cn1c(COc2ccc([N+](=O)[O-])cc2[N+](=O)[O-])cnc1[N+](=O)[O-]`, the growth is inactive: 107% in test [1]; inactive: 91.5% in [2]; inactive: 106% in [3]; inactive: 105% in test [4]; inactive: 106% in test [5]; inactive: 96.6% in test [6]. In addition, the growth was inactive: 98% in test [7]; inactive: 97.5% in test [8]; inactive: 106% in test [9]; inactive: 94.9% in test [10]; inactive: 95.3% in test [11]; inactive: 103% in [12]. Besides, the growth in test [13] is inactive: 76.9%; in [14], inactive: 108%; in test [15], inactive: 100%; in [16], inactive: 93.9%; in test [17], inactive: 101%; in test [20] it was inactive: 106%. In addition, the growth was inactive: 93.6% in test [18] and inactive: 112% in test [19].
Regarding `COC(=O)N(C)[N+](=O)[O-]`, the growth in test [1] was inactive: 118%; in test [2] it was inactive: 112%; in [3], inactive: 102%; in test [4] it was inactive: 109%; in test [5], inactive: 99.1%; in test [6], inactive: 125%. Also, the growth in test [7] was inactive: 103%; in test [8], inactive: 97.3%; in [9], inactive: 93.6%; in [10], inactive: 99.5%; in [11], inactive: 93.5%; in test [12] it was inactive: 104%. Also, the growth in test [13] is inactive: 81.5%; in test [14], inactive: 97.5%; in [15], inactive: 95.4%; in test [16], inactive: 99.6%; in test [17], inactive: 110%; in [20] it was inactive: 100%. Besides, the growth in [18] was inactive: 108%; in test [19] it was inactive: 109%.
In the case of `O=[N+]([O-])c1ccc(CCCCCCc2ccc([N+](=O)[O-])cc2[N+](=O)[O-])c([N+](=O)[O-])c1`, the growth in test [1] was inactive: 91.7%; in [2], inactive: 72.8%; in test [3], inactive: 92.7%; in [4] it was inactive: 87.5%; in test [5], inactive: 104%; in test [6], inactive: 86.6%. Moreover, the growth was inactive: 103% in test [7]; inactive: 104% in test [8]; inactive: 92.3% in test [9]; inactive: 90.3% in [10]; inactive: 91% in test [11]; inactive: 117% in [12]. Besides, the growth was inactive: 106% in [13]; inactive: 95.3% in [15]; inactive: 77.7% in test [16]; inactive: 83.5% in [17]; inactive: 68% in test [20]; inactive: 97.7% in [18]. In addition, the growth in test [19] is inactive: 104%.
For the compound `O=C(CBr)c1ccc([N+](=O)[O-])cc1`, the growth in test [1] is inactive: 115%; in test [2], inactive: 98.6%; in [3] it was inactive: 113%; in test [4], inactive: 95.1%; in test [5], inactive: 122%; in [6], inactive: 112%. Further, the growth is inactive: 114% in [7]; inactive: 106% in test [8]; inactive: 101% in test [9]; inactive: 110% in test [10]; inactive: 113% in test [11]; inactive: 92.7% in test [12]. Moreover, the growth is inactive: 95.1% in test [14]; inactive: 102% in test [15]; inactive: 75.6% in test [16]; inactive: 110% in test [17]; inactive: 98.1% in [20]; inactive: 109% in [18]. In addition, in test [19], the growth is inactive: 90.9%.
